{"source": "patent US20260207519A1", "about": "“ISOLATED TARGETED DELIVERY SYSTEM FOR THE TREATMENT OF OVARIAN CANCER” (CELLIS SP. Z O.O. [LTD.], priority 2022, published 2026)", "test_system": "SKOV-3_luc tumors", "test": "1st in vivo study: SKOV-3_luc tumors implanted orthotopically", "set-up": "species or system female Balb/c nude mice", "conditions": "day 42, supine images; one-Way ANOVA with Tukey's post-hoc test"}
{"substance": "Trastuzumab", "values": [{"measurement": "BLI values vs vehicle", "result": "significantly smaller"}]}
